Target: HSA (Homo sapiens, UniProt P02768)
Assay: Formation of albumin-prodrug conjugate with HSA (SDS-PAGE, MALDI-TOF, RP-HPLC)
Assay type: binding
Conditions: 1% HSA in PBS, room temperature, 1 h
Procedure: To this end, a PBS solution (1 ml) containing 1% albumin (HSA, MSA or BSA) or 1% blocked albumin (blocked HSA, MSA or BSA) was added to 1 mg of the prodrug (Al-ProD) synthesized in Example 1 and incubated at room temperature for various times (0 h, 5 min, and 1 h). After completion of the incubation, samples were analyzed via SDS-PAGE and MALDI-TOF mass spectrometry.
τ-maleimido butyric acid was added to 1% albumin (HSA, MSA or BSA) for 1 h to block the thiol group of the albumin. In the “Blocking” row in the table of FIG. 5, the plus signs (+) represent the use of blocked albumin.

Amino acid sequences for entries named in this document (tags omitted). Residues count along the entry.
UniProt P02768, 25-609: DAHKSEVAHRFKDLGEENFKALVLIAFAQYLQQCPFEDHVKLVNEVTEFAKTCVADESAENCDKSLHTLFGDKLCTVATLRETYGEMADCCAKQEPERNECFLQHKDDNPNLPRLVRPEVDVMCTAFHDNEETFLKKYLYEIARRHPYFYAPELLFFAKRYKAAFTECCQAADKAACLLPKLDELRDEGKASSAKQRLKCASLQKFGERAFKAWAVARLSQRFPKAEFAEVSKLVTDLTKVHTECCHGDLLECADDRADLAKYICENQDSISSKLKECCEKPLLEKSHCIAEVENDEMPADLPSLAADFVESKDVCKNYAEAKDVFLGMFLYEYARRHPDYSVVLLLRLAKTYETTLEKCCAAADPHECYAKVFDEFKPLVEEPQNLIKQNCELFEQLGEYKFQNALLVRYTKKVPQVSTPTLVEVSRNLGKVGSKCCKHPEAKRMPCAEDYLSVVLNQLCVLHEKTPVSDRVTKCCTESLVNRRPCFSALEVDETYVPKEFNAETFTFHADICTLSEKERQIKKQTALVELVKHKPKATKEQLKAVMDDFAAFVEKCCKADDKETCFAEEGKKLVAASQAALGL

COc1cccc2c1C(=O)c1c(O)c3c(c(O)c1C2=O)C[C@@](O)(C(=O)CO)C[C@@H]3O[C@H]1C[C@H](N)[C@H](O)[C@H](C)O1 [free DOX, doxorubicin, reference compound]
formation of conjugate with HSA (SDS-PAGE band shift to 50-75 kDa): did not form conjugates with any albumin
